Source: PMC12389735, “Polyoxypregnane Aryl Esters Prepared from Metaplexis japonica (Thunb.) Makino and Their Role in Reversing Multidrug Resistance in HepG2/Dox Cells” (Pharmaceuticals, 2025)

Test system: HepG2 cells
Assay: cells
Conditions: Homo sapiens, HepG2, 48 h, read-out: IC50 ± SD HepG2

Compound	IC50
CC[C@]1(O)C[C@@H]2CN(CCc3c([nH]c4ccccc34)[C@@](C(=O)OC)(c3cc4c(cc3OC)N(C)[C@H]3[C@@](O)(C(=O)OC)[C@H](OC(C)=O)[C@]5(CC)C=CCN6CC[C@]43[C@@H]65)C2)C1 [Vinblastine, reference compound]	17 ± 4 nM
CC(=O)O[C@H]1C(=O)[C@@]2(C)[C@H]([C@H](OC(=O)c3ccccc3)[C@]3(O)C[C@H](OC(=O)[C@H](O)[C@@H](NC(=O)c4ccccc4)c4ccccc4)C(C)=C1C3(C)C)[C@]1(OC(C)=O)CO[C@@H]1C[C@@H]2O [Paclitaxel, reference compound]	31 ± 2 nM
